Source: patent publication US6953793B2 (priority 2000, dated 2005)

By UniProt entry, the sequences of proteins in these tests, tags left out. Residues count along the entry.
UniProt P25774, 115-331: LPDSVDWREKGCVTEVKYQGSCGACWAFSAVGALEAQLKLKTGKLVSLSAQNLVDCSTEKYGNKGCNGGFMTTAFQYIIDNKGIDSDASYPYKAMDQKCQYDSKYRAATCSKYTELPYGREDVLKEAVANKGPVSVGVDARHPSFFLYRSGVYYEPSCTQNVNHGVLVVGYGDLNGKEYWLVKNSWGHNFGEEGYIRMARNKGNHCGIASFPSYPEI

What follows are molecules tested against T1, Recombinant human cathepsin S (CatS) (Homo sapiens, UniProt P25774) (assay: biochemical).
T1 construct: made in house; host or cells: baculovirus system (insect cells)

Structure (SMILES) | IC50 [nM]
CC(=O)N1CCc2c(c(-c3ccc(C(F)(F)F)cc3)nn2CC(O)CN2CCC(n3c(=O)n(CC#N)c4ccccc43)CC2)C1 (stereo not drawn) [Example 315, [3-(1-{3-[5-Acetyl-3-(4-trifluoromethyl-phenyl)-4,5,6,7-tetrahydro-pyrazolo[4,3-c]pyridin-1-yl]-2-hydroxy-propyl}-piperidin-4-yl)-2-oxo-2,3-dihydro-benzoimidazol-1-yl]-acetonitrile] | 80
CC(=O)N1CCc2c(c(-c3ccc(Cl)c(C)c3)nn2CC(O)CN2CCC(n3c(=O)[nH]c4ccc(C)cc43)CC2)C1 (stereo not drawn) [Example 277, 1-(1-{3-[5-Acetyl-3-(4-chloro-3-methyl-phenyl)-4,5,6,7-tetrahydro-pyrazolo[4,3-c]pyridin-1-yl]-2-hydroxy-propyl}-piperidin-4-yl)-6-methyl-1,3-dihydro-benzoimidazol-2-one] | 60
NC(=O)N1CCc2c(c(-c3ccc(Br)cc3)nn2CCCN2CCC(n3c(=O)[nH]c4ccccc43)CC2)C1 [Example 366, 3-(4-Bromo-phenyl)-1-{3-[4-(2-oxo-2,3-dihydro-benzoimidazol-1-yl)-piperidin-1-yl]-propyl}-1,4,6,7-tetrahydro-pyrazolo[4,3-c]pyridine-5-carboxylic acid amide] | 50
CC(=O)N1CCc2c(c(-c3ccc(Br)cc3)nn2CC(O)CN2CCC(n3c(=O)oc4cccc(C)c43)CC2)C1 (stereo not drawn) [Example 387, 3-(1-{3-[5-Acetyl-3-(4-bromo-phenyl)-4,5,6,7-tetrahydro-pyrazolo[4,3-c]pyridin-1-yl]-2-hydroxy-propyl}-piperidin-4-yl)-4-methyl-3H-benzooxazol-2-one] | 340
CS(=O)(=O)N1CCc2c(c(-c3ccc(Br)cc3)nn2CC(O)CN2CCC(n3c(=O)[nH]c4cccnc43)CC2)C1 (stereo not drawn) [Example 371, 3-(1-{3-[3-(4-Bromo-phenyl)-5-methanesulfonyl-4,5,6,7-tetrahydro-pyrazolo[4,3-c]pyridin-1-yl]-2-hydroxy-propyl}-piperidin-4-yl)-1,3-dihydro-imidazo[4,5-b]pyridin-2-one] | 80
CC(=O)N1CCc2c(c(-c3ccc(Cl)c(C)c3)nn2CC(O)CN2CCC(c3nc4ccccc4s3)CC2)C1 (stereo not drawn) [Example 125, 1-[1-[3-(4-Benzothiazol-2-yl-piperidin-1-yl)-2-hydroxy-propyl]-3-(4-chloro-3-methyl-phenyl)-1,4,6,7-tetrahydro-pyrazolo[4,3-c]pyridin-5-yl]-ethanone] | 250
CC(=O)N1CCc2c(c(-c3ccc(C(F)(F)F)cc3)nn2CC(O)CN2CCC(Oc3nc4ccccc4o3)CC2)C1 (stereo not drawn) [Example 111, 1-[1-{3-[4-(Benzooxazol-2-yloxy)-piperidin-1-yl]-2-hydroxy-propyl}-3-(4-trifluoromethyl-phenyl)-1,4,6,7-tetrahydro-pyrazolo[4,3-c]pyridin-5-yl]-ethanone] | 1200
CC(=O)N1CCc2c(c(-c3ccc(C(F)(F)F)cc3)nn2CC(O)CN2CCC(n3c(=O)n(C)c4ccccc43)CC2)C1 (stereo not drawn) [Example 300, 1-(1-{3-[5-Acetyl-3-(4-trifluoromethyl-phenyl)-4,5,6,7-tetrahydro-pyrazolo[4,3-c]pyridin-1-yl]-2-hydroxy-propyl}-piperidin-4-yl)-3-methyl-1,3-dihydro-benzoimidazol-2-one] | 140
CS(=O)(=O)N1CCc2c(c(-c3ccc(C(F)(F)F)cc3)nn2CC(O)CN2CCC(n3c(=O)oc4cccnc43)CC2)C1 (stereo not drawn) [Example 397, 3-(1-{2-Hydroxy-3-[5-methanesulfonyl-3-(4-trifluoromethyl-phenyl)-4,5,6,7-tetrahydro-pyrazolo[4,3-c]pyridin-1-yl]-propyl}-piperidin-4-yl)-3H-oxazolo[4,5-b]pyridin-2-one] | 120
CCOC(=O)c1ccc2c(c1)oc(=O)n2C1CCN(CC(O)Cn2nc(-c3ccc(Br)cc3)c3c2CCN(C(C)=O)C3)CC1 (stereo not drawn) [Example 388, 3-(1-{3-[5-Acetyl-3-(4-bromo-phenyl)-4,5,6,7-tetrahydro-pyrazolo[4,3-c]pyridin-1-yl]-2-hydroxy-propyl}-piperidin-4-yl)-2-oxo-2,3-dihydro-benzooxazole-6-carboxylic acid ethyl ester] | 320
CCn1c(=O)n(C2CCN(CCCn3nc(-c4ccc(Br)cc4)c4c3CCN(S(C)(=O)=O)C4)CC2)c2nc(OC)ccc21 [Example 340, 3-(1-{3-[3-(4-Bromo-phenyl)-5-methanesulfonyl-4,5,6,7-tetrahydro-pyrazolo[4,3-c]pyridin-1-yl]-propyl}-piperidin-4-yl)-1-ethyl-5-methoxy-1,3-dihydro-imidazo[4,5-b]pyridin-2-one] | 90
Cn1c(=O)n(C2CCN(CCCn3nc(-c4ccc(C(F)(F)F)cc4)c4c3CCN(S(=O)(=O)NC(=O)OC(C)(C)C)C4)CC2)c2ccccc21 [Example 335, 1-{3-[4-(3-Methyl-2-oxo-2,3-dihydro-benzoimidazol-1-yl)-piperidin-1-yl]-propyl}-3-(4-trifluoromethyl-phenyl)-1,4,6,7-tetrahydro-pyrazolo[4,3-c]pyridine-5-sulfonic acid (N-t-butoxycarbonyl)amide] | 390
CC(=O)N1CCc2c(c(-c3ccc(S(C)(=O)=O)cc3)nn2CC(O)CN2CCC(n3c(=O)[nH]c4ccccc43)CC2)C1 (stereo not drawn) [Example 258, 1-(1-{3-[5-Acetyl-3-(4-methanesulfonyl-phenyl)-4,5,6,7-tetrahydro-pyrazolo[4,3-c]pyridin-1-yl]-2-hydroxy-propyl}-piperidin-4-yl)-1,3-dihydro-benzoimidazol-2-one] | 230
CC(=O)N1CCc2c(c(-c3ccc(Cl)cc3)nn2CC(O)CN2CCC(Nc3ccc(C#N)cc3)CC2)C1 (stereo not drawn) [Example 221, 4-(1-{3-[5-Acetyl-3-(4-chloro-phenyl)-4,5,6,7-tetrahydro-pyrazolo[4,3-c]pyridin-1-yl]-2-hydroxy-propyl}-piperidin-4-ylamino)-benzonitrile] | 1400
CS(=O)(=O)N1CCc2c(c(-c3ccc(C(F)(F)F)cc3)nn2CC(O)CN2CCC(n3cnc4ccccc43)CC2)C1 (stereo not drawn) [Example 215, 1-(4-Benzoimidazol-1-yl-piperidin-1-yl)-3-[5-methanesulfonyl-3-(4-trifluoromethyl-phenyl)-4,5,6,7-tetrahydro-pyrazolo[4,3-c]pyridin-1-yl]-propan-2-ol] | 140
Cn1c(=O)n(C2CCN(C[C@@H](O)Cn3nc(-c4ccc(C(F)(F)F)cc4)c4c3CCN(S(C)(=O)=O)C4)CC2)c2cc(Cl)ccc21 [Example 367, (R)-5-Chloro-3-(1-{2-hydroxy-3-[5-methanesulfonyl-3-(4-trifluoromethyl-phenyl)-4,5,6,7-tetrahydro-pyrazolo[4,3-c]pyridin-1-yl]-propyl}-piperidin-4-yl)-1-methyl-1,3-dihydro-benzoimidazol-2-one] | 30
Cn1c(=O)n(C2CCN(CCCn3nc(-c4ccc(Br)cc4)c4c3CCN(S(=O)(=O)Cc3ccccc3)C4)CC2)c2ccccc21 [Example 354, 1-(1-{3-[3-(4-Bromo-phenyl)-5-phenylmethanesulfonyl-4,5,6,7-tetrahydro-pyrazolo[4,3-c]pyridin-1-yl]-propyl}-piperidin-4-yl)-3-methyl-1,3-dihydro-benzoimidazol-2-one] | 930
CS(=O)(=O)N1CCc2c(c(-c3ccc(C(F)(F)F)cc3)nn2CC(O)CN2CCC(n3c(=O)n(Cc4ccncc4)c4ccccc43)CC2)C1 (stereo not drawn) [Example 384, 1-(1-{2-Hydroxy-3-[5-methanesulfonyl-3-(4-trifluoromethyl-phenyl)-4,5,6,7-tetrahydro-pyrazolo[4,3-c]pyridin-1-yl]-propyl}-piperidin-4-yl)-3-pyridin-4-ylmethyl-1,3-dihydro-benzoimidazol-2-one] | 170
CS(=O)(=O)N1CCc2c(c(-c3ccc(Br)cc3)nn2CC(O)CN2CCC(N3c4ccc(Cl)cc4CNS3(=O)=O)CC2)C1 (stereo not drawn) [Example 132, 1-[3-(4-Bromo-phenyl)-5-methanesulfonyl-4,5,6,7-tetrahydro-pyrazolo[4,3-c]pyridin-1-yl]-3-[4-(6-chloro-2,2-dioxo-3,4-dihydro-2H-2λ^6-2,1,3-benzothiadiazin-1-yl)-piperidin-1-yl]-propan-2-ol] | 110
CC(=O)N1CCc2c(c(-c3ccc(Br)cc3)nn2C[C@H](O)CN2CCC(n3c(=O)[nH]c4ccc(Cl)cc43)CC2)C1 [Example 289, (R)-1-(1-{3-[5-Acetyl-3-(4-bromo-phenyl)-4,5,6,7-tetrahydro-pyrazolo[4,3-c]pyridin-1-yl]-2-hydroxy-propyl}-piperidin-4-yl)-6-chloro-1,3-dihydro-benzoimidazol-2-one] | 200
CC(C)(C)OC(=O)N1CCc2c(c(-c3ccc(Cl)c(Cl)c3)nn2CC(O)CN2CCC(n3nnc4ccccc43)CC2)C1 (stereo not drawn) [Example 183, 1-[3-(4-Benzotriazol-1-yl-piperidin-1-yl)-2-hydroxy-propyl]-3-(3,4-dichloro-phenyl)-1,4,6,7-tetrahydro-pyrazolo[4,3-c]pyridine-5-carboxylic acid tert-butyl ester] | 2300
CS(=O)(=O)N1CCc2c(c(-c3ccc(Br)cc3)nn2CC(O)CN2CCC(n3c(=O)n(CCN4CCOCC4)c4ccc(Cl)cc43)CC2)C1 (stereo not drawn) [Example 304, 3-(1-{3-[3-(4-Bromo-phenyl)-5-methanesulfonyl-4,5,6,7-tetrahydro-pyrazolo[4,3-c]pyridin-1-yl]-2-hydroxy-propyl}-piperidin-4-yl)-5-chloro-1-(2-morpholin-4-yl-ethyl)-1,3-dihydrobenzoimidazol-2-one] | 140
CC(=O)N1CCc2c(c(-c3ccc(Cl)c(C)c3)nn2CC(O)CN2CCC(n3c(=O)n(C)c4ccccc43)CC2)C1 (stereo not drawn) [Example 260, 1-(1-{3-[5-Acetyl-3-(4-chloro-3-methyl-phenyl)-4,5,6,7-tetrahydro-pyrazolo[4,3-c]pyridin-1-yl]-2-hydroxy-propyl}-piperidin-4-yl)-3-methyl-1,3-dihydro-benzoimidazol-2-one] | 480
CC(=O)N1CCc2c(c(-c3ccc(Cl)c([N+](=O)[O-])c3)nn2CC(O)CN2CCC(n3c(=O)[nH]c4ccccc43)CC2)C1 (stereo not drawn) [Example 256, 1-(1-{3-[5-Acetyl-3-(4-chloro-3-nitro-phenyl)-4,5,6,7-tetrahydro-pyrazolo[4,3-c]pyridin-1-yl]-2-hydroxy-propyl}-piperidin-4-yl)-1,3-dihydro-benzoimidazol-2-one] | 640
